## Apparent affinities of Ab-91 variants for a coronavirus HR2 peptide

Data: MIT Lincoln Laboratory AlphaSeq set, Engelhart et al. 2022, doi:10.1038/s41597-022-01779-4, as distributed in FLAb.

All variants were tested on one target, the spike HR2 peptide PDVDLGDISGINAS (SARS-CoV-2).

Parent scFv Ab-91: VL joined to VH by three GGGGS repeats. Changes lie in the heavy chain CDRs alone.
VL: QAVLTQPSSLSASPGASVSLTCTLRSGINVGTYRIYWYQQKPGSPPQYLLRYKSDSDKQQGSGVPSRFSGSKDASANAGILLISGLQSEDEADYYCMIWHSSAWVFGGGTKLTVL
VH: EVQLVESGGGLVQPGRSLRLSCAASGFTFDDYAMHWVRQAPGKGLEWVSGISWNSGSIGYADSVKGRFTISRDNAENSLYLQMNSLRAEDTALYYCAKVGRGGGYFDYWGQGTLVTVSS

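Phage display of a naive human antibody library on the peptide gave the parent. In library AAYL51, one, two or three CDR residues were substituted; doubles and triples were drawn at random. Affinity was read by AlphaSeq, a pooled yeast mating assay with surface-displayed partners. Mating (16 h, 30 °C) was followed by selection of diploids and sequencing of their barcodes. Each replicate has its own calibration line, from reference interactions of the BCL2 family. There are three technical replicates.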

Changes read parent residue, position, new residue, counted from the first residue of the VH shown. Values are log10 of the apparent Kd in nM; lower means stronger binding. The mean shown is taken over the replicates in which the pair was detected. A pair that was not seen in that replicate is written "n.d."; this usually means weak binding, but a binder can also be missed.

{"changes": "G56N+Y60C+V99F", "log10 Kd (nM) by replicate": "4.84 n.d. n.d.", "log10 Kd (nM), mean": "4.84", "control signals": "2/9 (4.82)"}
{"changes": "W53F+F106A", "log10 Kd (nM) by replicate": "1.14 1.50 0.41", "log10 Kd (nM), mean": "1.02", "control signals": "1/9 (3.77)"}
{"changes": "G50M+I58P+Y60G", "log10 Kd (nM) by replicate": "n.d. n.d. 5.47", "log10 Kd (nM), mean": "5.47", "control signals": "3/9 (4.84)"}
{"changes": "T28L+W53E+G56W", "log10 Kd (nM) by replicate": "n.d. 4.24 n.d.", "log10 Kd (nM), mean": "4.24", "control signals": "2/9 (3.02)"}
{"changes": "G50F+S55F+G100P", "log10 Kd (nM) by replicate": "5.45 n.d. n.d.", "log10 Kd (nM), mean": "5.45", "control signals": "0/9"}
{"changes": "H35A+S52T+V64S", "log10 Kd (nM) by replicate": "n.d. n.d. n.d.", "log10 Kd (nM), mean": "n.d.", "control signals": "2/9 (3.83)"}
{"changes": "G102C", "log10 Kd (nM) by replicate": "n.d. n.d. n.d.", "log10 Kd (nM), mean": "n.d.", "control signals": "0/9"}
{"changes": "D30P+K65Y+D107E", "log10 Kd (nM) by replicate": "1.49 1.24 n.d.", "log10 Kd (nM), mean": "1.37", "control signals": "0/9"}
{"changes": "W53F+Y60F+Y108E", "log10 Kd (nM) by replicate": "2.06 1.42 1.29", "log10 Kd (nM), mean": "1.59", "control signals": "1/9 (2.78)"}
{"changes": "M34E+H35L+D107H", "log10 Kd (nM) by replicate": "n.d. 3.45 n.d.", "log10 Kd (nM), mean": "3.45", "control signals": "2/9 (4.29)"}
{"changes": "T28H+A61E+Y105T", "log10 Kd (nM) by replicate": "2.61 2.95 2.92", "log10 Kd (nM), mean": "2.82", "control signals": "1/9 (4.78)"}
{"changes": "V99R+G103Y+D107L", "log10 Kd (nM) by replicate": "3.79 4.27 n.d.", "log10 Kd (nM), mean": "4.03", "control signals": "4/9 (4.63)"}
{"changes": "G59Y+R101A", "log10 Kd (nM) by replicate": "n.d. n.d. n.d.", "log10 Kd (nM), mean": "n.d.", "control signals": "0/9"}
{"changes": "D30M+G100R+R101E", "log10 Kd (nM) by replicate": "n.d. n.d. n.d.", "log10 Kd (nM), mean": "n.d.", "control signals": "6/9 (4.58)"}
{"changes": "D30Y+Y32I+K65P", "log10 Kd (nM) by replicate": "n.d. n.d. n.d.", "log10 Kd (nM), mean": "n.d.", "control signals": "4/9 (4.26)"}
{"changes": "H35N+V64Y+G104Y", "log10 Kd (nM) by replicate": "n.d. 5.14 n.d.", "log10 Kd (nM), mean": "5.14", "control signals": "6/9 (4.96)"}
{"changes": "I51G+N54T+Y105T", "log10 Kd (nM) by replicate": "4.78 5.05 4.20", "log10 Kd (nM), mean": "4.68", "control signals": "7/9 (4.80)"}
{"changes": "D62L+G100S+F106D", "log10 Kd (nM) by replicate": "5.40 5.11 3.53", "log10 Kd (nM), mean": "4.68", "control signals": "0/9"}
{"changes": "K65D+Y105D", "log10 Kd (nM) by replicate": "5.10 n.d. n.d.", "log10 Kd (nM), mean": "5.10", "control signals": "3/9 (4.13)"}
{"changes": "G26S+S57V+G103A", "log10 Kd (nM) by replicate": "4.63 n.d. n.d.", "log10 Kd (nM), mean": "4.63", "control signals": "4/9 (4.62)"}
{"changes": "I51E+Y60W+G102M", "log10 Kd (nM) by replicate": "n.d. n.d. n.d.", "log10 Kd (nM), mean": "n.d.", "control signals": "1/9 (3.11)"}
{"changes": "F29C+V64L+R101W", "log10 Kd (nM) by replicate": "n.d. n.d. n.d.", "log10 Kd (nM), mean": "n.d.", "control signals": "0/9"}
{"changes": "G26C+S57Y+R101P", "log10 Kd (nM) by replicate": "n.d. n.d. n.d.", "log10 Kd (nM), mean": "n.d.", "control signals": "1/9 (3.46)"}
{"changes": "F29D+A33K+I51D", "log10 Kd (nM) by replicate": "n.d. n.d. n.d.", "log10 Kd (nM), mean": "n.d.", "control signals": "0/9"}
{"changes": "H35T+N54A+D62S", "log10 Kd (nM) by replicate": "n.d. n.d. n.d.", "log10 Kd (nM), mean": "n.d.", "control signals": "2/9 (3.90)"}
{"changes": "S52C+S57M+R101C", "log10 Kd (nM) by replicate": "3.99 n.d. n.d.", "log10 Kd (nM), mean": "3.99", "control signals": "0/9"}
{"changes": "G26Y+G50T+I51P", "log10 Kd (nM) by replicate": "5.08 n.d. n.d.", "log10 Kd (nM), mean": "5.08", "control signals": "2/9 (5.61)"}
{"changes": "I51Q+S57M+Y60M", "log10 Kd (nM) by replicate": "n.d. n.d. n.d.", "log10 Kd (nM), mean": "n.d.", "control signals": "2/9 (3.64)"}
{"changes": "F27T+G56F+A61Y", "log10 Kd (nM) by replicate": "n.d. n.d. n.d.", "log10 Kd (nM), mean": "n.d.", "control signals": "2/9 (4.65)"}

Picked from the list: the 3 lowest averages where every replicate gave a value.

{"changes": "W53F+F106A", "log10 Kd (nM) by replicate": "1.14 1.50 0.41", "log10 Kd (nM), mean": "1.02", "control signals": "1/9 (3.77)"}
{"changes": "W53F+Y60F+Y108E", "log10 Kd (nM) by replicate": "2.06 1.42 1.29", "log10 Kd (nM), mean": "1.59", "control signals": "1/9 (2.78)"}
{"changes": "T28H+A61E+Y105T", "log10 Kd (nM) by replicate": "2.61 2.95 2.92", "log10 Kd (nM), mean": "2.82", "control signals": "1/9 (4.78)"}

In this assay the parent's reference entry averaged 1.86; its copy inside this library read 0.88. Background: pairings of library AAYL51 with three empty control strains gave a value in 21% of cases (median 4.54, 5th percentile 3.26). Values in that range, when seen in few replicates, are hard to tell from nonspecific mating. The control count says in how many pairings with the empty strains this scFv gave a signal, with their mean in brackets.